Experiment [1] addresses T1, Cannabinoid receptor 2 (Homo sapiens, UniProt P34972). The experiment can be described thus: Binding affinity to cannabinoid CB2 receptor.
Experiment [2] addresses T1, Cannabinoid receptor 2. Put plainly: Displacement of [3H]CP-55940 from human cannabinoid CB2 receptor expressed in CHO cells. The experiment is classed as cell-based. For orientation: In a radioligand displacement assay an active substance lowers the binding of a labelled ligand.
The target of experiment [3] is Prostaglandin E2 receptor EP2 subtype (Homo sapiens, UniProt P43116). Put plainly: Binding affinity to EP2 receptor.

Protein sequences, listed by entry. Tags and fused reporters are not part of them. Lines headed by an entry give the natural chain unless they say otherwise; changes in a name come on top.
UniProt P34972, whole entry: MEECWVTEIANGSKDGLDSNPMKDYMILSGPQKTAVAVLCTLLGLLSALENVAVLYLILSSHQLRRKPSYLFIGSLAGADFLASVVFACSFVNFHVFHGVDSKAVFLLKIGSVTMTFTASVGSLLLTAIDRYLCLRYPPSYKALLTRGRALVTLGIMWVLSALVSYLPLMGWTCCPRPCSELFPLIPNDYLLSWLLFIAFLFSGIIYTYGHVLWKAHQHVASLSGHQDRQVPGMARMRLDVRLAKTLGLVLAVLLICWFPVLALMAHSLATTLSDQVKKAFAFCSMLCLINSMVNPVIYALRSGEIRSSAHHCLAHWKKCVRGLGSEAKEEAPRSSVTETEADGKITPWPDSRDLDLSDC
UniProt P43116: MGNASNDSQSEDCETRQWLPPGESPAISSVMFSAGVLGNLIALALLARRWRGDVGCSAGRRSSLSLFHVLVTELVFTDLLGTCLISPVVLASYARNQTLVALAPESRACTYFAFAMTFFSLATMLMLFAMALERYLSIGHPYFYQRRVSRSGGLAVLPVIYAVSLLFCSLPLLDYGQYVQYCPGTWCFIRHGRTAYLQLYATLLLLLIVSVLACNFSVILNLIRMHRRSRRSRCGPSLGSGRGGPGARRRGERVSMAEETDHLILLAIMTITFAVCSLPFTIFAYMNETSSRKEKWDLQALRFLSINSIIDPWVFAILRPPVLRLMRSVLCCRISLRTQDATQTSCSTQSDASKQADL

Broadly, the Ki is the dissociation constant of the complex between target and ligand, obtained from inhibition or displacement. A word on the IC50: it is the concentration that gives 50% inhibition. A low value points to higher potency.

In experiment [1], `Cc1c(C(=O)NN2CCCCC2)nn(-c2ccc(Cl)cc2Cl)c1-c1ccc(I)cc1` yielded a Ki of 2.29 µM.

As for `C=C(C)[C@@H]1CCC(C)=C[C@H]1c1c(O)cc(CCCCC)cc1O` [CANNABIDIOL], in experiment [2], the Ki is 10 µM.

For `CCCCC[C@H](O)/C=C/[C@H]1[C@H](O)CC(=O)[C@@H]1C/C=C\CCCC(=O)O` [DINOPROSTONE], the IC50 in experiment [3] came out at 0.0377 µM.

(Values after ChEMBL document CHEMBL1155461, “Emerging targets in osteoporosis disease modification” (J Med Chem, 2010).)
